Holding throughout (details): Group 2; 60 min; Dosage 1: α-ketoglutarate 2.85 μmol·kg^−1·min^−1 i.v. alone
Data set [1] deals with anaesthetised piglet model. Kind of data set: blood gas and hemodynamic variables in anaesthetised piglets during i.v. infusion. It is filed as in vivo. As for the experimental part: Food was withheld from the animals for twelve hours prior to the experiment, but they had free access to water. […] In addition, all animals were given an intravenous bolus of morphine 1 mg·kg^-1 and, following tracheotomy, pancuronium bromide 0.3 mg·kg^-1. […] After the last measurements, still under anaesthesia, the animals were killed with an overdose of potassium chloride. After induction of anaesthesia the animals were tracheotomised and ventilated through an 8 mm endotracheal tube (Mallincrodt Laboratories, Athlone, Ireland) with a Servo ventilator […] ([…], Solna, Sweden). Ventilation was maintained at 25 breaths per minute with a positive end-expiratory pressure of 5 cm of H2O. […] The body temperature was kept stable by means of a thermostat controlled heating pad and warmed intravenous infusions. […] Arterial blood gases were analysed on an ABL300/OSM3 system (Radiometer, Copenhagen, Denmark). […] Blood glucose was analysed on a Reflolux® II (Boehringer Mannheim, Germany), using the glucose-oxidase/peroxidase reaction. […] Splanchnic plasma flow was calculated according to a formula derived from Fick's principle: [formula] […] Femoral artery plasma flow was calculated as blood flow (1-EVF). The turnover of amino acids, ammonium and urea were calculated as plasma flow times the arterio-venous plasma concentration difference with negative values indicating release and positive values uptake. […]

The next data set concerns splanchnic area. Kind of data set: splanchnic turnover (plasma flow times arterio-venous difference; negative = release, positive = uptake). It is filed as in vivo, piglets. As for the experimental part: Food was withheld from the animals for twelve hours prior to the experiment, but they had free access to water. […] In addition, all animals were given an intravenous bolus of morphine 1 mg·kg^-1 and, following tracheotomy, pancuronium bromide 0.3 mg·kg^-1. […] After the last measurements, still under anaesthesia, the animals were killed with an overdose of potassium chloride. After induction of anaesthesia the animals were tracheotomised and ventilated through an 8 mm endotracheal tube (Mallincrodt Laboratories, Athlone, Ireland) with a Servo ventilator […] ([…], Solna, Sweden). Ventilation was maintained at 25 breaths per minute with a positive end-expiratory pressure of 5 cm of H2O. […] The body temperature was kept stable by means of a thermostat controlled heating pad and warmed intravenous infusions. After skin incisions, a catheter was introduced in the left external jugular vein and advanced to the right hepatic vein under fluoroscopic control. Its position was confirmed by a contrast injection. The right external jugular vein was used for placement of a central venous catheter and a 7F pulmonary artery thermodilution catheter. An arterial catheter was inserted in a subclavian branch and advanced to a central position. Through a small suprapubic incision, a urinary catheter was placed in the bladder. A cutdown was made to place an ultrasonic flow probe (Transonic Systems Inc., Ithaca, N.Y., USA) around the femoral artery and to cannulate the femoral vein for blood sampling. Arterial blood gases were analysed on an ABL300/OSM3 system (Radiometer, Copenhagen, Denmark). […] The column eluate was mixed with ninhydrin reagent for amino acid detection. […] Blood glucose was analysed on a Reflolux® II (Boehringer Mannheim, Germany), using the glucose-oxidase/peroxidase reaction. Arterial and hepatic venous blood was drawn for calculations of splanchnic blood flow. […] The mean value of at least three measurements was adopted. Calculation of splanchnic blood flow was carried out according to the constant dye infusion technique (10). […] Splanchnic plasma flow was calculated according to a formula derived from Fick's principle: [formula] […] Femoral artery plasma flow was calculated as blood flow (1-EVF). The turnover of amino acids, ammonium and urea were calculated as plasma flow times the arterio-venous plasma concentration difference with negative values indicating release and positive values uptake. After anaesthesia and surgical preparation the piglets were allowed a stabilisation period of one hour and randomly assigned to either Group 1 or Group 2.

The subject of a further data set is hind leg skeletal muscle. Kind of data set: hind leg turnover (plasma flow times arterio-venous difference; negative = release, positive = uptake). It is filed as in vivo, piglets. As for the experimental part: Food was withheld from the animals for twelve hours prior to the experiment, but they had free access to water. […] In addition, all animals were given an intravenous bolus of morphine 1 mg·kg^-1 and, following tracheotomy, pancuronium bromide 0.3 mg·kg^-1. […] After the last measurements, still under anaesthesia, the animals were killed with an overdose of potassium chloride. After induction of anaesthesia the animals were tracheotomised and ventilated through an 8 mm endotracheal tube (Mallincrodt Laboratories, Athlone, Ireland) with a Servo ventilator […] ([…], Solna, Sweden). […] The body temperature was kept stable by means of a thermostat controlled heating pad and warmed intravenous infusions. After skin incisions, a catheter was introduced in the left external jugular vein and advanced to the right hepatic vein under fluoroscopic control. Its position was confirmed by a contrast injection. The right external jugular vein was used for placement of a central venous catheter and a 7F pulmonary artery thermodilution catheter. An arterial catheter was inserted in a subclavian branch and advanced to a central position. Through a small suprapubic incision, a urinary catheter was placed in the bladder. A cutdown was made to place an ultrasonic flow probe (Transonic Systems Inc., Ithaca, N.Y., USA) around the femoral artery and to cannulate the femoral vein for blood sampling. Arterial blood gases were analysed on an ABL300/OSM3 system (Radiometer, Copenhagen, Denmark). […] The column eluate was mixed with ninhydrin reagent for amino acid detection. […] Blood glucose was analysed on a Reflolux® II (Boehringer Mannheim, Germany), using the glucose-oxidase/peroxidase reaction. Arterial and hepatic venous blood was drawn for calculations of splanchnic blood flow. […] The mean value of at least three measurements was adopted. […] Femoral artery plasma flow was calculated as blood flow (1-EVF). The turnover of amino acids, ammonium and urea were calculated as plasma flow times the arterio-venous plasma concentration difference with negative values indicating release and positive values uptake. After anaesthesia and surgical preparation the piglets were allowed a stabilisation period of one hour and randomly assigned to either Group 1 or Group 2.

On to `O=C(O)CCC(=O)C(=O)O` [α-KGA, α-ketoglutaric acid], for which, in data set [1], the Leg blood flow is reported as 6.0 ± 0.5 a ml · min^−1 · kg^−1 and the Spl. blood flow worked out at 49 ± 6 mL/min/kg. Also, in the data set with splanchnic area, the “Alanine turnover, splanchinc” value was determined as 4.11 ± 0.97 µmol/min/kg; the “Arginine turnover, splanchinc” value was found to be 0.26 ± 0.22 µmol/min/kg; the “Glutamate turnover, splanchinc” value is -5.83 ± 0.61 µmol/min/kg; the “Glutamine turnover, splanchinc” value amounted to 2.14 ± 0.31 µmol/min/kg. Moreover, in the data set with splanchnic area, the “NH4^+ turnover, splanchinc” value was 0.50 ± 0.21 µmol/min/kg; the “Total AA turnover, splanchinc” value is 6.18 ± 2.26 µmol/min/kg; the “Urea turnover, splanchinc” value was -4.0 ± 1.2 µmol/min/kg. In the data set on hind leg skeletal muscle, the “Alanine turnover, hind leg” value is -0.20 ± 0.09 µmol/min/kg; the “Arginine turnover, hind leg” value was 0.03 ± 0.02 µmol/min/kg; the “FE (%)-NH4^+, hind leg” value is 5 ± 7%; the “Glutamate turnover, hind leg” value was determined as 0.25 ± 0.06 µmol/min/kg. Besides, in the data set with hind leg skeletal muscle, the “Glutamine turnover, hind leg” value is -0.09 ± 0.07 µmol/min/kg; the “NH4^+ turnover, hind leg” value turned out to be 0.01 ± 0.02 µmol/min/kg; the “Total AA turnover, hind leg” value was -0.36 ± 0.64 µmol/min/kg; the “Urea turnover, hind leg” value was -0.2 ± 0.4 µmol/min/kg.
